By UniProt entry, the sequences of proteins in these tests, tags left out. Residues count along the entry.
UniProt P13631, 185-419 limits assumed: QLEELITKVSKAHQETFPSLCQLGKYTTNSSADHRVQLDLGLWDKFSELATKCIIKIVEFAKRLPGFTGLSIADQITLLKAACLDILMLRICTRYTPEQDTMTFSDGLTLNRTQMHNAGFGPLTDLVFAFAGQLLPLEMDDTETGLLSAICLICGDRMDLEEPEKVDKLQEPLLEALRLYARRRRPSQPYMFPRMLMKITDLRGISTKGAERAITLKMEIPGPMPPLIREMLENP

According to paper PMC6954720, “Discovery of retinoic acid receptor agonists as proliferators of cardiac progenitor cells through a phenotypic screening approach” (Stem Cells Translational Medicine, 2019):

Target: RARG (gamma) ligand binding domain (Homo sapiens, UniProt P13631)
Experiment: RAR LBD-SRC1-2 coactivator peptide recruitment assay, agonist format, RARG
Type: biochemical
Experimental: RAR ligand binding domain (LBD)‐SRC1‐2 coactivator peptide (NCOA1_677‐700 biotinylated) recruitment assays were established for the three RAR isotypes RARA (alpha), RARB (beta), and RARG (gamma) to determine relative potencies. […] A total of 0.4 μL of a fixed concentration range of test ligands dissolved in dimethyl sulphoxide (DMSO) was added to assay plates using an acoustic liquid dispenser. […] The raw data were transformed to % effect using the equation: compound % effect = 100 × [(X − min)/(max − min)], where X represents the effect in the presence of test compound and max and min are the effects in presence of the maximum and minimum controls, respectively.
The data were plotted to generate concentration‐response profiles and the concentration‐response curves were fit to the data using the four‐parameter logistic smart fit method in the Genedata Screener software (Genedata, Inc).

Q: `CC1=C(/C=C/C(C)=C/C=C/C(C)=C/C(=O)O)C(C)(C)CCC1` [ATRA, all‐trans retinoic acid] was tested. Which “RARγ pEC50 (% top effect): % top effect” value did it give?
A: Its value is 104%.
